Experimental data: patent publication US5585095A, “Method to enhance thrombomodulin APC generation using cationic proteins” (Regents of the University of Minnesota, priority 1993, dated 1996)

Protein sequences, listed by entry. Tags and fused reporters are not part of them. Residues count along the entry.
UniProt P07204, 19-515: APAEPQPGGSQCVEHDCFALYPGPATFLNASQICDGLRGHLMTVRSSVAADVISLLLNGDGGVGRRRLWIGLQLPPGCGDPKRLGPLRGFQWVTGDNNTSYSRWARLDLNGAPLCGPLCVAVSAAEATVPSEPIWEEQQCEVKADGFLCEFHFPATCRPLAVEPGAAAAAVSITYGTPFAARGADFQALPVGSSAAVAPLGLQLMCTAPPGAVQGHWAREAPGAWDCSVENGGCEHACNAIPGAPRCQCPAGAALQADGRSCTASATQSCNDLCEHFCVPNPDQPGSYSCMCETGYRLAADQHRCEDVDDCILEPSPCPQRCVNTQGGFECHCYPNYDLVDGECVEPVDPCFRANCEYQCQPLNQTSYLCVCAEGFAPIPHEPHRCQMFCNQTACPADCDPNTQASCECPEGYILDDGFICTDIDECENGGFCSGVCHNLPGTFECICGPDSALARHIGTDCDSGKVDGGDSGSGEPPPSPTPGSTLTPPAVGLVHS

Molecular target: T1, GAG+ TM (Homo sapiens, UniProt P07204)
T1 construct: encompassing the entire extracellular domain ([amino acids 1-497], which includes the serine 492 glycosylation site); host or cells: Chinese Hamster Ovary cells
Experiment: APC generation by recombinant GAG+ TM with thrombin and protein C (chromogenic S-2366)
Type: biochemical
Conditions: conditions of Example 1, GAG+ TM, FIG. 4
Experimental: Human PF4 was purified from outdated platelets by THR stimulation, NH4 SO4 precipitation, heparin affinity chromatography, and Scphadex G-100 chromatography using a technique described in T. F. Deuel et al., Proc. Natl. Acad. Sci. USA, 74, 2256-2258 (1977), which is incorporated herein by reference. Dose-response studies were then performed with increasing amounts of PF4 to assay its effect upon the ability of three TM preps to generate APC from protein C. […]
For each type of TM, 2 nM TM and 500 nM protein C were incubated together in the presence of 1 mM (i.e., physiologic) Ca^2+ with or without PF4, and the generation of APC initiated by the addition of 2 nM THR in 50 mM Tris, 100 mM NaCl, pH 7.4 at 37° C. […] APC was quantified spectrophotometrically with the chromogenic substrate S-2366 (obtained from Kabi Vitrum, Franklin, Ohio). […] Values obtained from these controls were then subtracted from the rates measured for wells containing monolayers. […]

With albumin: anionic protein the “acceleratory effect upon APC generation by thrombomodulin (GAG+ TM)” value was “no such effect”.
